Values quoted from earlier work, collected in patent publication US6994987B1, “Process for producing tripeptides” (Calpis Co., Ltd., priority 1999, dated 2006).

The chains behind the UniProt entries cited, without tags or fusion partners. Residues count along the entry.
UniProt P12821, 30-1306, species assumed: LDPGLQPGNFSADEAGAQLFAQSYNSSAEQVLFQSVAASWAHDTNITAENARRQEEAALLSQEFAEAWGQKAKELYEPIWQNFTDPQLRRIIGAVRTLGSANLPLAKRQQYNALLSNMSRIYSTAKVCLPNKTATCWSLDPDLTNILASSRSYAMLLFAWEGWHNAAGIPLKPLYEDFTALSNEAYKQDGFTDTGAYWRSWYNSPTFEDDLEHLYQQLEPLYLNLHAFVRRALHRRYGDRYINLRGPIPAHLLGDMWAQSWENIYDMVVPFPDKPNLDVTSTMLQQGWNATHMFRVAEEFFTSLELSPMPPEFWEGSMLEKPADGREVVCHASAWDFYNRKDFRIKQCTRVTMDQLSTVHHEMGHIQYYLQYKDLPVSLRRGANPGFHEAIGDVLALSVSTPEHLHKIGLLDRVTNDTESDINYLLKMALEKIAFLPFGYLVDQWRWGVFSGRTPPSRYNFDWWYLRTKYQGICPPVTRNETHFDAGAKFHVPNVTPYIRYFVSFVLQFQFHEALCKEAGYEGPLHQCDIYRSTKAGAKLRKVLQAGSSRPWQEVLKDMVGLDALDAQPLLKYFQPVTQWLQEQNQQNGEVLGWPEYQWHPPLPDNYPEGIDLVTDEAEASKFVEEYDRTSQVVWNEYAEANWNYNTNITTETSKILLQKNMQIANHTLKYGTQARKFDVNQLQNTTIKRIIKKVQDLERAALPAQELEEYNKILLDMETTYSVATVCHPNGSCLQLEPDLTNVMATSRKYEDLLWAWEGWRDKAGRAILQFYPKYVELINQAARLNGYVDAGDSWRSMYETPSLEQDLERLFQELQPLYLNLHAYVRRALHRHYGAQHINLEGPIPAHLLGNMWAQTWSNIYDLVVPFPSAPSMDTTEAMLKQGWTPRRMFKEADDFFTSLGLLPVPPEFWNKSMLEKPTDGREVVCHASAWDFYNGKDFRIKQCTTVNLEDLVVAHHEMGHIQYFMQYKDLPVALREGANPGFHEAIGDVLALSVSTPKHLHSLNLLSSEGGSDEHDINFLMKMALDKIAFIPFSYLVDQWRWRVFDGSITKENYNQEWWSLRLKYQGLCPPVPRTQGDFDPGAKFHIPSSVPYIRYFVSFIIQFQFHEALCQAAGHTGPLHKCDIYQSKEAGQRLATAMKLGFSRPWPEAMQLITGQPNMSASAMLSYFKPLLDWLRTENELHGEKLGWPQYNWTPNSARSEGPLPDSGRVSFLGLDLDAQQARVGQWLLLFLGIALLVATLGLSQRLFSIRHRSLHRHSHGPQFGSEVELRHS

Target: angiotensin converting enzyme (ACE) (Homo sapiens, UniProt P12821)
Settings: known in the prior art; cited from earlier work

## Val Pro Pro [Val-Pro-Pro]
  ACE inhibitory activity: strong
